How the values were obtained:
[1] = Relative cytotoxic potency given as Hypersensitivity ratio of (IC50 for AA8 cell line) to (IC50 for P388 leukemia cell line)
P388 = test: Cytotoxicity against P388 leukemia cell line; type: functional, cell-based, Mus musculus
Method in brief: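 P388 murine leukemia cells kept in log phase in RPMI 1640 with 10% fetal calf serum. Drug was present in 96-well microcultures for the whole 72 h growth period. Final cell density was read by a slightly modified MTT method. IC50 is the nominal concentration cutting density to 50% of controls, with eight control cultures per plate.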

| Structure (SMILES) | HF [1] | IC50 (P388) [µM] |
| --- | --- | --- |
| Cc1ccc(N(CCCl)CCCl)cc1 | 46 |  |
| CSc1ccc(N(CCCl)CCCl)cc1 | 33 | 1.38 |
| COc1ccc(N(CCCl)CCCl)cc1 | 42 |  |
| CS(=O)(=O)c1ccc(N(CCCl)CCCl)cc1 | 3.5 | 39 |

From ChEMBL document CHEMBL1125007 (J Med Chem, 1990)
